Biological target: BTK (Homo sapiens, UniProt Q06187)
Experiment: BTK degradation assay using the HiBiT Method (Nano-Glo HiBiT Lytic Assay, GM01501.3 cells)
Assay type: cell-based
Conditions: HiBiT Degradation on GM01501.3 BTK @ 6 hours
Description: Selected compounds were tested in a BTK degradation assay using the HiBiT Method. Park Memorial Institute (RPM1) 1640 Medium with phenol red, L-Glutamine, Sodium Pyruvate, and fetal bovine serum (FBS) were purchased from Gibco (Grand Island, NY, USA). Nano-Glo® HiBiT Lytic Assay System was purchased from Promega (Madison, WI, USA). GM01501 cells were obtained from the NIGMS Human Genetic Cell Repository at the Coriell Institute for Medical Research. The GM01501.3 cell line endogenously expresses BTK with a HiBiT fusion tag via CRISPR knock-in at its C-terminal region. It was engineered by electroporation with the Neon Transfection System (Themo Fisher Scientific), according to manufacturer indications. Electroporation conditions: 1 pulse of 1,350 V for 30 ms for 0.5×10_6 cells. Cell culture flasks and 384-well microplates were acquired from VWR (Radnor, PA, USA). BTK degradation was evaluated by quantification of luminescent signal using Nano-Glo® HiBiT Lytic Assay kit. Test compounds were added to the 384-well plate from a top concentration of 10 μM with 11 points, half log titration in duplicates. GM01501.3 cells were added into 384-well plates at a cell density of 10,000 cells per well in a total volume of 30 μl. The plates were kept at 37° C. with 5% CO2 for 6 hours. Negative control wells included cells treated with DMSO only and positive control wells included only growing media, without Nano-Glo® HiBiT Lytic reagent. After a 6-hour incubation, Nano-Glo® HiBiT Lytic Assay reagent was added to the cells following manufacturer indications. Luminescence was acquired on EnVision™ Multilabel Reader (PerkinElmer, Santa Clara, CA, USA). […] “++++” represents a DC50 value of less than 100 nM. “+++” represents a DC50 value of 100 nM-500 nM. “++” represents a DC50 value of 500 nM-1000 nM. “+” represents a DC50 value of greater than 1000 nM.

Chains of the proteins cited; added tags and fusions are not shown.
UniProt Q06187, whole entry: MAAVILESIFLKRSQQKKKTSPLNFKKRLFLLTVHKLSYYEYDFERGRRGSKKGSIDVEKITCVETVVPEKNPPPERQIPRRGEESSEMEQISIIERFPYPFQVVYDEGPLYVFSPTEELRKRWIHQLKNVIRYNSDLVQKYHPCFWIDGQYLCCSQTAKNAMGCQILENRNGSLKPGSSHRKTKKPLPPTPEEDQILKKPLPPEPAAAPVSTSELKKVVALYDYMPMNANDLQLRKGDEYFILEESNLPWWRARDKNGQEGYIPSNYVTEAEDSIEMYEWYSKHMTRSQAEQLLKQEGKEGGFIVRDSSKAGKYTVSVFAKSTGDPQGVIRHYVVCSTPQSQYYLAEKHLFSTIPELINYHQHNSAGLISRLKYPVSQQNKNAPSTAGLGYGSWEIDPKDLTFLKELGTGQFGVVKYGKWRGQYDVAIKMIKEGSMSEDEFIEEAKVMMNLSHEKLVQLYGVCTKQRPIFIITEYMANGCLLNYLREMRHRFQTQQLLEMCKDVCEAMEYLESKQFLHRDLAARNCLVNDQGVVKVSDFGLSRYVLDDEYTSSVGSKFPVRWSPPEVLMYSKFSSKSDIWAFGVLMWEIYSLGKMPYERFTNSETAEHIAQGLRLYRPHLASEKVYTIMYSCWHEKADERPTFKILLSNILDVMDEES

Compound: Cc1cc(-c2ncnn3cc(CCN4CCC(c5ccc6c(C7CCC(=O)NC7=O)nn(C)c6c5)CC4)cc23)ccc1CNC(=O)c1noc(C2(C(F)(F)F)CC2)n1 (stereo not drawn)
- DC50: < 0.1 µM

Compound: Cc1cc(-c2ncnn3cc(CCN4CCC(c5ccc(CN6CCC(=O)NC6=O)cc5)CC4)cc23)ccc1CNC(=O)c1noc(C(C)(C)C)n1
- DC50: < 0.1 µM

Compound: Cc1cc(-c2ncnn3cc(CCN4CCC(c5ccc6c(C7CCC(=O)NC7=O)nn(C)c6c5)CC4)cc23)ccc1CNC(=O)c1cc(C(C)(C)C)no1 (stereo not drawn)
- DC50: < 0.1 µM
